Data set [1] relates to neuroblastoma cells. Conditions: cited from earlier work.
For data set [2], the system named is hESC. The data set is described as follows: P4 synthesis and secretion by hESC, ELISA of P4 in media. It counts as cell-based, human. An excerpt: Results are expressed as ug P4/ug cellular protein (mean±SEM, n=3, *p<0.001).
For orientation: ELISA stands for enzyme-linked immunosorbent assay.

Turning to LH: luteinizing hormone, a gonadotropin, in data set [1], the cytotoxicity entry was “induces cytotoxicity”, the oxidative stress result is given as “increases oxidative stress” and the tau phosphorylation result is “dose-dependently alters tau phosphorylation”.

As to hCG: Human chorionic gonadotropin, the “P4 synthesis and secretion from hESC” value in data set [2] (hCG 500 mIU/mL each day for 6 d) is “induces P4 synthesis and secretion”. Besides, in data set [2] (hESC treated with hCG), the “cholesterol transport by steroidogenic acute regulatory protein (StAR) in hESC” value was “rapidly upregulated cholesterol transport by steroidogenic acute regulatory protein (StAR)”.

The values above are taken from patent US20100028360A1, “METHODS FOR THE MODULATION OF BRAIN PROGESTAGEN SIGNALING IN THE PREVENTION AND TREATMENT OF NEUROLOGICAL DISORDERS AND NEURODEGENERATIVE DISEASES” (priority 2008, published 2010).
